These results are taken from patent US20240344035A1, “Culture Medium and Culture Method for Human Primary Acute Myeloid Leukemia Cells” (PRECEDO PHARMACEUTICALS CO., LTD, priority 2021, published 2024).

Common to all, as to type: cell-based
Assay [1] has as its system human primary acute myeloid leukemia cells. Description: Effect of single added factors in Basal Medium on proliferation (CCK-8). More on the design: key: +: compared with the Basal Medium, the culture medium added with the additive can promote the proliferation of two cases of human primary acute myeloid leukemia cells isolated from human primary acute myeloid leukemia bone marrow samples; −: the culture medium added with the additive can promote the proliferation of at least one case of human primary acute myeloid leukemia cells isolated from human primary acute myeloid leukemia bone marrow samples; ∘: the medium added with the additive has no significant effect on the proliferation of at least two cases of human primary acute myeloid leukemia cells isolated from human primary acute myeloid leukemia bone marrow samples. The conditions noted are these: additive at the listed final concentration in Basal Medium; samples A17007, A25104; 5 to 8 days; CCK-8, 450 nm; versus Basal Medium. How it is done: First, the Basal Medium was prepared. The formulation of the Basal Medium was monocyte serum-free medium (purchased from BI, 05-080-1A)+10% (v/v) fetal bovine serum (purchased from ExCell Bio, FND500)+100 μg/mL Primocin (purchased from InvivoGen, 0.2% (v/v), the commercial product concentration is 50 mg/mL).
Different types of growth factors (see Table 1) were added to the Basal Medium to prepare culture mediums for human primary acute myeloid leukemia cells containing different added components.
The culture mediums of different compositions in Table 1 were added into a 96-well plate in a volume of 100 μL/well. Human primary acute myeloid leukemia cells isolated from two cases of human primary acute myeloid leukemia bone marrow samples (numbered A17007, A25104, from the First Affiliated Hospital of Anhui Medical University) according to the above step (2) were inoculated in the 96-well culture plate at a density of 1×10^4 cells/well and cultured at 37° C. and 5% […]. After 5 to 8 days of culture, the cells grew to 70% to 85%, and 10 μL of Cell Counting Kit-8 (CCK-8, purchased from MCE) was added to each well and incubated at 37° C. and 5% CO2 for 2 to 4 hours. The substances in each well were mixed, and the plate was read using a multifunctional microplate reader (Multi-Mode Detection Platform, American Molecular Instruments (Shanghai) Co., Ltd.) at 450 nm. […]

The test system is the same in assay [2]. Description: Effect of combinations of added factors on proliferation (viable cell counting, FIG. 1). As to conditions: six bone marrow samples. How it is done: The culture mediums for human primary acute myeloid leukemia cells containing different combinations of added factors were prepared according to the components in Table 2, to investigate the proliferation-promoting effects of different added factor combinations on human primary acute myeloid leukemia cells.
Human primary acute myeloid leukemia cells were obtained from human primary acute myeloid leukemia bone marrow samples (numbered A17151, A17152, A20090, A20101, A21004, A20141) according to the process of step (2)-3 of Example 1. The obtained cell suspension was divided into 11 equal parts, which were then centrifuged at 1500 rpm for 4 minutes. After centrifugation, the cells were resuspended with 200 μL BM or No. 1 to 10 culture medium, respectively, and inoculated into a 48-well plate at a viable cell density of 2×10^4 cells/well (20,000 cells per well). Each well in the 48-well plate was supplemented to a volume of 1 mL with the corresponding culture mediums, and the resultant was fully mixed. After surface disinfection, the plate was placed in a 37° C., 5% CO2 incubator (purchased from Thermo Fisher) for culture.
The cells in the 48-well plate grew to more than 85% and were transferred to a 15 mL centrifuge tube which was then centrifuged at 1500 rpm for 5 minutes. 500 μL of monocyte serum-free medium was added to the centrifuge tube to resuspend the cell pellet. […]

For assay [3] the test system is unchanged. Briefly: Proliferative effects of different concentrations of added factors (ratio to Blank Control, FIGS. 2A-2H). How it is done: Human primary acute myeloid leukemia cells were obtained from human primary acute myeloid leukemia bone marrow samples (numbered A23065, A17112) according to the process of step (2)-3 of Example 1. The cells were resuspended with Basal Medium (monocyte serum-free medium+10% (v/v) fetal bovine serum+100 μg/mL Primocin) for later use.
Next, the factors with cell culture proliferation-promoting effect determined in Example 2 were added to the Basal Medium (prepared according to the No. 2 formulation of Example 2) to obtain a combined basal medium, and then the following 8 formulations of culture mediums were prepared for experiments. • Formulation 1: the combined basal medium without glutamine additive; • Formulation 2: the combined basal medium without human SCF; • Formulation 3: the combined basal medium without human IL-6; • Formulation 4: the combined basal medium without human IL-3; • Formulation 5: the combined basal medium without human FLT3L; • Formulation 6: the combined basal medium without non-essential amino acids; • Formulation 7: the combined basal medium without human IL-7; • Formulation 8: the combined basal medium without human M-CSF.
20 μl of cell suspension containing 4×10^4 cells was added to each well, and the suspension was diluted with 1 mL medium of the above Formulations 1-8, respectively. […]

With human interleukin-2 [human IL-2], the “Level of promoting cell proliferation” value in assay [1] was “−”.

B1: human interleukin-3 (protein, UniProt P08700 20-152, looked up)
Interleukin-3: APMTQTTPLKTSWVNCSNMIDEIITHLKQPPLPLLDFNNLNGEDQDILMENNLRRPNLEAFNRAVKSLQNASAIESILKNLLPCLPLATAAPTRHPIHIKDGDWNEFRRKLTFYLKTLENAQAQQTTLSLAIF
notes: cytokine additive from Sino Biological
As for B1, the “Level of promoting cell proliferation” value in assay [1] was “+”. The “proliferation-promoting effect of the factor (omission from No. 1 medium)” value in assay [2] is recorded as “significantly promote the proliferation”. Besides, the “concentration at which the cell proliferation effect is most significant” value in assay [3] (five concentrations tested) amounted to 51 ng/mL. In addition, in assay [3] (samples A23065, A17112, factor added back to formulation lacking it), the “proliferation-promoting effect of the factor” value was “significant proliferation-promoting effect”.
